Experimental data: patent US6693208B2, “Compounds and compositions for delivering active agents” (Emisphere Technologies, Inc., priority 1999, dated 2004)

Test: Insulin oral delivery in rats, serum human insulin by ELISA
Conditions: human insulin alone without delivery agent, previous experiments
Protocol: Oral dosing (PO) compositions of delivery agent compound and human zinc insulin (minimum 26 IU/mg available from Calbiochem—Novabiochem Corp, La Jolla, Calif.) were prepared in deionized water. […] The solution was vortexed, then heated (about 37° C.) and sonicated. The pH was adjusted to about 7 to 8.5 with NaOH or HCl.
The typical dosing and sampling protocols were as follows. […] A dosing group of five animals was administered one of the dosing solutions. […] The syringe was filled with dosing solution by drawing the solution through the catheter, which was then wiped dry. The catheter was placed down the esophagus leaving 1 cm of tubing past the incisors. The dosing solution was administered by pressing the syringe plunger.
Serum insulin levels were determined with an Insulin ELISA Test Kit (Kit # DSL-10-1600 from Diagnostic Systems Laboratories, Inc., Webster, Tex.), modifying the standard protocol in order to optimize the sensitivity and linear range of the standard curve for the volumes and concentrations of the samples used in the present protocol. […] The five values for each time point were averaged and the results plotted as serum insulin concentration versus time.

## human insulin
  levels of human insulin following oral dosing with human insulin alone: no measurable levels
